{"source": "patent US10398647B2", "about": "“Hydrogel compositions and drug delivery systems comprising the same” (Industrial Technology Research Institute, priority 2016, dated 2019)", "test_system": "BT474 breast cancer", "assay": "In-vivo pharmacodynamics (PD) study, tumor growth inhibition", "settings": "Day 28 after dosing, 50 mg/kg, BT474 breast cancer mouse", "procedure": "The tumor volume (mm^3) was respectively measured on specific days after dosing to build tumor-volume variation curves. In accordance with the data of the tumor-volume variation curves, the tumor growth inhibition (TGI) was calculated and is shown in Table 4.\nThe tumor volume (mm^3) was respectively measured on specific days after dosing to build tumor-volume variation curves. In accordance with the data of the tumor-volume variation curves, the tumor growth inhibition (TGI) was calculated and is shown in Table 5 and FIG. 2.", "note": "Values joined by “and” are separate entries in the source; they are usually repeats but may differ in a detail not shown here. Equal entries are not always repeated.", "data": [{"substance": "Herceptin: Herceptin solution (20.0 mg/mL in PK, 10 mg/mL in PD) without hydrogel; antibody drug", "values": [{"measurement": "TGI (% ± SEM)", "value": "52.7% and 52.7 ± 22.2%"}]}]}
